Binding of CDR-mutated scFvs to a peptide of the spike HR2 region

Antigen: PDVDLGDISGINAS, a 14-residue peptide of the SARS-CoV-2 spike HR2 region.

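The parent was found by panning a naive human phage display library on the peptide. AAYL49 was designed without a model: most single CDR substitutions and a random sample of double and triple ones. In AlphaSeq, yeast of one mating type display the scFv and yeast of the other type display the target. Mating (16 h, 30 °C) was followed by selection of diploids and sequencing of their barcodes. The ratio of observed to expected reads was calibrated, replicate by replicate, on BCL2-family standards whose Kd was known from biolayer interferometry. Mating was done three times.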

The variants keep the light chain, the linker and the frameworks of Ab-14 (scFv order VH, the linker GGGGSGGGGSGGGGS, VL).
VH: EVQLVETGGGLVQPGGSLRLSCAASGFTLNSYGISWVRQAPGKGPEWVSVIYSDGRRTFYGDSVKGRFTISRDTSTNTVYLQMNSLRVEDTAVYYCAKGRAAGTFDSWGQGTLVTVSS
VL: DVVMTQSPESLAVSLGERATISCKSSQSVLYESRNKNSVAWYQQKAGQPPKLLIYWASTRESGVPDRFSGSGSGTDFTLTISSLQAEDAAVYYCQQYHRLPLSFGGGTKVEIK

Each variant is given by its three heavy chain CDRs, as the data file delimits them; those of the parent are GFTLNSYGIS, VIYSDGRRTFYGDSVK, GRAAGTFDS. Numbers give log10(Kd / nM), so 0 is 1 nM and 3 is 1 µM. Smaller is tighter. Averages over replicates are reported, and they cover detected replicates only. An entry "ND" has no value in the source: the pair was not observed among the diploids in that replicate. This suggests poor binding but is not conclusive.

| CDR-H1 | CDR-H2 | CDR-H3 | log10 Kd, replicates | mean log10 Kd (nM) | signal with controls |
|---|---|---|---|---|---|
| GFFLNSYGIS | VNYSDGRRTFYGDSVK | FRAAGTFDS | 4.82 / 4.28 / 5.15 | 4.75 | 6/9 (4.30) |
| PFTLNSYGIS | VIYSDGRRTFYGDSVK | GRAAGTDDH | 1.38 / 1.58 / 1.58 | 1.51 | 3/9 (4.59) |
| GFTLNSDGIN | VIYSDGDRTFYGDSVK | GRAAGTFDS | ND / ND / ND | ND | 2/9 (3.94) |
| GFTLNSYFIR | VIYSDGRRTFYGDSVK | GRLAGTFDS | ND / 3.53 / ND | 3.53 | 2/9 (3.73) |
| GFTLNSYGIS | VIYSDQRRTFYGDSVK | WRAAGTFDS | ND / ND / ND | ND | 1/9 (4.12) |
| GFTLNSYGIS | VIYSDGRRTFQGDNVK | GRALGTFDS | ND / 3.64 / ND | 3.64 | 2/9 (4.22) |
| WFTLNSYPIS | VIHSDGRRTFYGDSVK | GRAAGTFDS | ND / 2.64 / ND | 2.64 | 0/9 |
| GFTLNSYGIS | VIQSDGRRTFYGDSVK | GRAAGFFDY | ND / ND / ND | ND | 0/9 |
| GFTLNSCGIS | VIYSDGRFTFYNDSVK | GRAAGTFDS | 3.21 / 4.85 / ND | 4.03 | 1/9 (3.98) |
| GFTLNSYGIE | VIYSDGRRTFEGDSVK | GRAAGTFDS | ND / ND / ND | ND | 0/9 |
| GFTLNSYGTS | VQYSDGRRTFYGDSVK | GRAAGTFDY | 6.40 / 4.49 / 5.15 | 5.35 | 6/9 (4.36) |
| GFTLNSYGIS | VIYHDGRRTFYGDSVK | GRAAGTFHS | 2.27 / 2.08 / 2.53 | 2.29 | 0/9 |
| GFTLNSYGIS | VIYSDGRRTLYGDSVK | GRACGTVDS | ND / ND / ND | ND | 0/9 |
| GFTLNSFGIS | VIYSDGRRTFYGDSVK | GRAASTFDS | ND / ND / ND | ND | 1/9 (3.55) |
| GFTLNSYGIS | WIYSDGLRTFYGDSVK | GRAAGTWDS | ND / ND / ND | ND | 0/9 |
| GFTLNSYGIS | VIYSDQRRTFYGYSVH | GRAAGTFDS | ND / ND / ND | ND | 0/9 |
| GFTLNSYGIS | PIYSDGRRTFYGDSVK | GRAAGTRDS | ND / ND / ND | ND | 0/9 |
| GFTLNSYGIS | VIYSDGCRFFYGDSVK | GRMAGTFDS | ND / ND / ND | ND | 0/9 |
| GPTLNSYGIS | VIYSFGRRWFYGDSVK | GRAAGTFDS | ND / ND / 4.83 | 4.83 | 1/9 (4.29) |
| GCTLNSYGIS | VIYSDGRRVFYGDSVK | GRAAGTFVS | 4.20 / 3.70 / 4.04 | 3.98 | 4/9 (4.17) |
| GFTLNSYGIS | AIYSDGRRTFYGDSVK | GRAAGTFDR | 4.58 / 4.46 / ND | 4.52 | 3/9 (4.98) |
| GFTLNSYGIS | VIYSDGRRHFMGDSVK | GRAAGTLDS | ND / ND / ND | ND | 1/9 (4.38) |
| GFTLNSTGIS | VIYSDGRRTFYGDSVE | GRAAGTFDS | ND / 5.28 / ND | 5.28 | 1/9 (2.65) |
| GFTLNSYGIS | SIYSDGRRTFYGDSVK | GRAAGTFDS | 4.29 / ND / ND | 4.29 | 2/9 (3.61) |
| GFTLNSYGIS | VIYSDGRRTFYGDSVK | GRAAGSFQS | 1.52 / ND / 5.09 | 3.31 | 0/9 |
| GFTLNSYIIS | VIYSDGRWTFYGDSVK | GRAAGTFSS | 4.17 / 4.08 / ND | 4.13 | 3/9 (4.70) |
| GHTLNSYGQS | VIYNDGRRTFYGDSVK | GRAAGTFDS | ND / ND / ND | ND | 0/9 |
| PFTLNSYGIS | VIYSDGRRDFYGDDVK | GRAAGTFDS | 4.89 / ND / ND | 4.89 | 1/9 (4.02) |
| GFTLVSYKIS | VIYSDGRRTFYGDSVK | GRAWGTFDS | 4.20 / 4.18 / 5.01 | 4.46 | 4/9 (4.47) |
| GFTLNSYGIS | VGYSDGRRTFSGDSVK | GRAAGTFDD | ND / ND / 4.71 | 4.71 | 4/9 (4.05) |
| GFWRNSYGIS | VIYSDGRRTFYGDSVK | GRAAGTSDS | ND / ND / ND | ND | 3/9 (3.64) |
| GFTLNSYGIS | VITSDGRRTFYGDLVI | GRAAGTFDS | ND / ND / 5.04 | 5.04 | 6/9 (4.54) |
| GFTLNSYGIT | VRYSDGRRTFYGDSVK | GGAAGTFDS | 5.27 / 4.08 / 4.40 | 4.58 | 5/9 (4.72) |
| GFTLNSYGIS | VINSDGRRTFYPPSVK | GRAAGTFDS | ND / ND / ND | ND | 1/9 (3.65) |
| GFTLNSYGIS | VIYSDDRWTFYGDSVS | GRAAGTFDS | ND / ND / ND | ND | 3/9 (3.68) |
| GFTLNSYGIS | VIYSDGRRIFYGDSVK | GRAAGTFDS | 1.60 / 1.80 / 1.49 | 1.63 | 3/9 (4.51) |
| GYTLNVYTIS | VIYSDGRRTFYGDSVK | GRAAGTFDS | ND / ND / ND | ND | 0/9 |
| GFTLNSYGIC | VIYSDGRRTFYGDSVK | GRAAVTFYS | ND / ND / ND | ND | 2/9 (4.34) |
| PFTLNSYGSS | VIYSDGARTFYGDSVK | GRAAGTFDS | ND / 4.25 / ND | 4.25 | 0/9 |
| GFTHNSYGIS | VIYSDGRRTFYGDSVK | GRAAPTFDW | 5.50 / ND / ND | 5.50 | 7/9 (4.05) |
| GFTLNWYGIS | VIYSDGRRTFYGDSVN | GRAAGHFDS | ND / ND / ND | ND | 2/9 (3.54) |
| GFTLNSYGIS | VIYGHGRRTFYGDSVK | CRAAGTFDS | 5.88 / ND / ND | 5.88 | 2/9 (4.15) |
| GFTLNSYGIS | VIYSDGRRTRYSDSVK | GVAAGTFDS | 1.50 / 1.50 / 1.78 | 1.60 | 2/9 (4.09) |

The first 4 variants above that were never detected:

| CDR-H1 | CDR-H2 | CDR-H3 | log10 Kd, replicates | mean log10 Kd (nM) | signal with controls |
|---|---|---|---|---|---|
| GFTLNSDGIN | VIYSDGDRTFYGDSVK | GRAAGTFDS | ND / ND / ND | ND | 2/9 (3.94) |
| GFTLNSYGIS | VIYSDQRRTFYGDSVK | WRAAGTFDS | ND / ND / ND | ND | 1/9 (4.12) |
| GFTLNSYGIS | VIQSDGRRTFYGDSVK | GRAAGFFDY | ND / ND / ND | ND | 0/9 |
| GFTLNSYGIE | VIYSDGRRTFEGDSVK | GRAAGTFDS | ND / ND / ND | ND | 0/9 |

Parent in this assay: reference entry 0.65, copy in this library 4.11 (one replicate of three). As a blank, each scFv also met three strains without target: over library AAYL49, 15% of these pairings were detected, typically at 4.06 and seldom below 2.83. The control count says in how many pairings with the empty strains this scFv gave a signal, with their mean in brackets.

Reference: Engelhart et al. 2022, doi:10.1038/s41597-022-01779-4. File: FLAb, binding data.